Results reported in PubChem BioAssay AID818 (SRMLSC, 2007).
The entries are a selection whose mix differs from that of the whole data set. Activity calls are given as the source filed them.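 Rule for the calls: active = viability at or under a set limit, the compound median less 4 SD (cut at about 6% in these data); inactive = the rest.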

Experiment: primary screen for growth suppressors in beta-catenin knockout HCT116 cells (colon tumor, human) (AID 818);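 note: 0% = Hyamine 1622 control at 20 µM and 100% = untreated cell control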
Details: CellTiter-Glo, 60 h, at 10 µM, stronger effect = lower value

**Q.** With `Oc1ccccc1CNc1ccccn1` as the compound, how does the viability read?
**A.** inactive: 100%

**Q.** For `O=C(NC(Sc1ccncn1)C(Cl)(Cl)Cl)c1ccccc1` (stereo not drawn), which viability is on record?
**A.** inactive: 97.2%

**Q.** With `Cc1c2non([O-])c-2c(C)[n+](=O)[n+]1[O-]` as the compound, how does the viability read?
**A.** inactive: 79.3%

**Q.** For `CC(C)CC(=O)NC(Sc1ccc(Cl)cc1)C(Cl)(Cl)Cl` (stereo not drawn), which viability is on record?
**A.** inactive: 86.4%

**Q.** With `CN1CCCC(OC(=O)C(c2ccccc2)c2ccccc2)C1` (stereo not drawn) as the compound, how does the viability read?
**A.** inactive: 85.5%

**Q.** Which viability does the source give for `CCN(N=Nc1nonc1N)c1nonc1N` here?
**A.** inactive: 97%

**Q.** With `Cc1cc(SC(NC(=O)c2ccc(F)cc2)C(Cl)(Cl)Cl)ncn1` (stereo not drawn) as the compound, how does the viability read?
**A.** inactive: 90.4%

**Q.** For `CCOP(=O)(Nc1ccccc1)OCC`, which viability is on record?
**A.** inactive: 98.3%

**Q.** Which viability does the source give for `CC1CCN(C(=O)Oc2c(Cl)cc(Cl)c3cccnc23)CC1` here?
**A.** inactive: 68.7%

**Q.** For `CN(C)C(=O)OCCc1n(C)cc[n+]1C`, which viability is on record?
**A.** inactive: 84.8%

**Q.** Which viability does the source give for `CCc1nc2c(n1)c1c(non1O)c1c2no[n+]1[O-]` here?
**A.** active: 1.48%

**Q.** With `CC(=O)N1C2C3N(C(C)=O)C1C1N(C(C)=O)C(C(N1C(C)=O)N3C(C)=O)N2C(C)=O` as the compound, how does the viability read?
**A.** inactive: 104%

**Q.** For `O=[N+]([O-])c1cccc2n[nH]nc12`, which viability is on record?
**A.** inactive: 99.8%

**Q.** With `O=P(Nc1nccs1)(c1ccccc1)c1ccccc1` as the compound, how does the viability read?
**A.** inactive: 103%

**Q.** For `CC(C)C(=O)NC(Sc1ccccc1)C(Cl)(Cl)Cl` (stereo not drawn), which viability is on record?
**A.** inactive: 94%

**Q.** Which viability does the source give for `c1nnnn1CCn1cnnn1` here?
**A.** inactive: 100%

**Q.** Which viability does the source give for `CC(=O)NC(SC(=S)N(C)C)C(Cl)(Cl)Cl` (stereo not drawn) here?
**A.** active: 4.17%

**Q.** Which viability does the source give for `O=C(OC1CN2CCC1CC2)c1cccc(Cl)c1` (stereo not drawn) here?
**A.** inactive: 82.6%

**Q.** With `C(Cc1nn[nH]n1)Cc1nn[nH]n1` as the compound, how does the viability read?
**A.** inactive: 96.9%

**Q.** With `CCC(=O)N1C2C3N(C(=O)CC)C1C1N(C(=O)CC)C(C(N1C(=O)CC)N3C(=O)CC)N2C(=O)CC` as the compound, how does the viability read?
**A.** inactive: 105%

**Q.** With `COC(=O)c1cc2c(s1)N=C(c1ccccc1)N(C)P2(=O)N1CCOCC1` (stereo not drawn) as the compound, how does the viability read?
**A.** inactive: 111%

**Q.** For `CC(=O)NC(SC(=S)N(CC(C)C)CC(C)C)C(Cl)(Cl)Cl` (stereo not drawn), which viability is on record?
**A.** inactive: 17%

**Q.** For `CCOC(=O)NC(Sc1ccccc1)C(Cl)(Cl)Cl` (stereo not drawn), which viability is on record?
**A.** inactive: 95.3%

**Q.** For `O=P1(Nc2nc3ccc(Cl)cc3s2)COc2ccccc2O1` (stereo not drawn), which viability is on record?
**A.** inactive: 93.3%

**Q.** Which viability does the source give for `Cc1ccc(NCCc2c([N+](=O)[O-])cc([N+](=O)[O-])cc2[N+](=O)[O-])cc1` here?
**A.** inactive: 61.9%

**Q.** For `COc1cc(C2NCCC3(OCCO3)C2(C)C)cc(OC)c1OC` (stereo not drawn), which viability is on record?
**A.** inactive: 101%

**Q.** Which viability does the source give for `CCOP(=O)(Nc1cccc2ccccc12)OCC` here?
**A.** inactive: 88.3%

**Q.** For `Cc1cccc(OCC(=O)OC2CN3CCC2CC3)c1` (stereo not drawn), which viability is on record?
**A.** inactive: 91.1%

**Q.** For `CCOP1(=S)c2c(C)nn(CCC#N)c2N=C(c2ccc(F)cc2)N1C` (stereo not drawn), which viability is on record?
**A.** inactive: 72.6%

**Q.** For `O=[N+]([O-])c1ccc2c(c1)nnn2O`, which viability is on record?
**A.** inactive: 103%

**Q.** Which viability does the source give for `CCOP1(=S)c2c(C)nn(CCC#N)c2N=C(c2ccccc2F)N1C` (stereo not drawn) here?
**A.** inactive: 84.3%

**Q.** Which viability does the source give for `O=P(Nc1nccs1)(c1ccccc1)c1nc2ccccc2s1` (stereo not drawn) here?
**A.** inactive: 89.6%

**Q.** Which viability does the source give for `O=P1(Nc2ncccn2)COc2ccccc2OC1` here?
**A.** inactive: 98.5%

**Q.** For `Cc1ccc(OCC(=O)OC2CN3CCC2CC3)cc1` (stereo not drawn), which viability is on record?
**A.** inactive: 80.5%

**Q.** Which viability does the source give for `O=P1(Nc2ccc(Br)cn2)COc2ccccc2OC1` here?
**A.** inactive: 101%

**Q.** Which viability does the source give for `Cc1nn(-c2ccccc2)c2c1P(=O)(N1CCOCC1)N(C)C(c1ccccc1)=N2` (stereo not drawn) here?
**A.** inactive: 105%

**Q.** With `O=P1(Nc2ccccn2)COc2ccccc2OC1` as the compound, how does the viability read?
**A.** inactive: 97.8%

**Q.** For `Clc1n[nH]nc1-c1nn[nH][15n]1`, which viability is on record?
**A.** inactive: 93.7%

**Q.** Which viability does the source give for `CCC(C)N(CC(C)C)C(=S)SC(NC(C)=O)C(Cl)(Cl)Cl` (stereo not drawn) here?
**A.** inactive: 21.4%

**Q.** Which viability does the source give for `COP1(=S)c2c(C)nn(CCC#N)c2N=C(c2ccc(F)cc2)N1C` (stereo not drawn) here?
**A.** inactive: 99%

**Q.** With `O=C(COc1ccccc1)OC1CN2CCC1CC2` (stereo not drawn) as the compound, how does the viability read?
**A.** inactive: 92.9%

**Q.** With `Cc1cc(SC(NC(=O)c2ccccc2)C(Cl)(Cl)Cl)nc(C(C)C)n1` (stereo not drawn) as the compound, how does the viability read?
**A.** inactive: 101%

**Q.** For `ClCCSc1nnc(-c2cccnc2)o1`, which viability is on record?
**A.** inactive: 103%

**Q.** For `CCN(CC)C(=S)SC(NC=O)C(Cl)(Cl)Cl` (stereo not drawn), which viability is on record?
**A.** active: 3.35%

**Q.** Which viability does the source give for `O=[N+]([O-])c1cc([N+](=O)[O-])c(-c2ccn[nH]2)s1` here?
**A.** active: 3.4%

**Q.** For `Cc1ccc2nc3c(c(C)c2c1)CC(C(Cl)Cl)S3` (stereo not drawn), which viability is on record?
**A.** inactive: 77.6%

**Q.** With `Cc1c2c(nc3ccccc13)SC(C(Cl)Cl)C2` (stereo not drawn) as the compound, how does the viability read?
**A.** inactive: 96%

**Q.** Which viability does the source give for `O=C(OC1CN2CCC1CC2)C12CC3CC(CC(C3)C1)C2` (stereo not drawn) here?
**A.** inactive: 88.7%
